Data as given in patent US20250136612A1, “4',5'-DIHYDROSPIRO[PIPERIDINE-4,7'-THIENO[2,3-C]PYRAN] DERIVATIVES AS INHIBITORS OF APOL1 AND METHODS OF USING SAME” (VERTEX PHARMACEUTICALS INCORPORATED, priority 2022, published 2025).

Chains of the proteins cited; added tags and fusions are not shown.
UniProt O14791, whole entry S342G/I384M: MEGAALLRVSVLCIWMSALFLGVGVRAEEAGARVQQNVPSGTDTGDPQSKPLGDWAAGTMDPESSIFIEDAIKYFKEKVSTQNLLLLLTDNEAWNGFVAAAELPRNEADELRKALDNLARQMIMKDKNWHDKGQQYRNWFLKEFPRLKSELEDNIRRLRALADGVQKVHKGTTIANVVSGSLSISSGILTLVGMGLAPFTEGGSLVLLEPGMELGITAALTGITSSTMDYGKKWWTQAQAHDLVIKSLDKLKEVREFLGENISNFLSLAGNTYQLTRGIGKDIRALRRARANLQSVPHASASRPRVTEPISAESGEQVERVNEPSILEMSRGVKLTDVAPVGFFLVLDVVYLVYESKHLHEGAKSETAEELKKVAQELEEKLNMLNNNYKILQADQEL

Target: APOL1 (Homo sapiens, UniProt O14791)
Assay: MultiTox-Fluor Multiplex Cytotoxicity Assay in tet-inducible APOL1 T-REx-HEK293 cells
Details: read-out: IP50 (i.e., IC50 for cell proliferation), 50 ng/mL tet, 24 hours, ratio of dead to live cells
Protocol: The MultiTox-Fluor Multiplex Cytotoxicity Assay is a single-reagent-addition, homogeneous, fluorescence assay that measures the number of live and dead cells simultaneously in culture wells. The assay measures cell viability and cytotoxicity by detecting two distinct protease activities. The live-cell protease activity is restricted to intact viable cells and is measured using a fluorogenic, cell-permeant peptide glycyl-phenylalanylamino fluorocoumarin (GF-AFC) substrate. The substrate enters intact cells, where it is cleaved to generate a fluorescent signal proportional to the number of living cells. […]
Briefly, the tet-inducible transgenic APOL1 T-REx-HEK293 cell lines were incubated with 50 ng/mL tet to induce APOL1 in the presence of 3-(2-(4-fluorophenyl)-1H-indol-3-yl)-N-((3S,4R)-4-hydroxy-2-oxopyrrolidin-3-yl)propenamide at 10.03, 3.24, 1.13, 0.356, 0.129, 0.042, 0.129, 0.0045, 0.0015, 0.0005 μM in duplicate for 24 hours in a humidified 37° C. incubator. […] The plate was read on the EnVision plate reader. A ratio of dead to live cells was used to normalize, and data was imported, analyzed, and fit using Genedata Screener (Basel, Switzerland) software. […]
Assay ready plates from the Global Compound Archive were ordered using template 384_APOL1Cell_DR10n2_50 uM_v3. […]

With `CCc1cc2c(s1)CCOC21CCNC(c2cc(C)no2)C1` (stereo not shown) as the compound, how does the IC50 read?
Its IC50 is 100 to 500 nM.
